For assay [1], the target named is T1, TGF-beta receptor type-1 (Homo sapiens) (UniProt P36897).
T1 sequence (whole entry): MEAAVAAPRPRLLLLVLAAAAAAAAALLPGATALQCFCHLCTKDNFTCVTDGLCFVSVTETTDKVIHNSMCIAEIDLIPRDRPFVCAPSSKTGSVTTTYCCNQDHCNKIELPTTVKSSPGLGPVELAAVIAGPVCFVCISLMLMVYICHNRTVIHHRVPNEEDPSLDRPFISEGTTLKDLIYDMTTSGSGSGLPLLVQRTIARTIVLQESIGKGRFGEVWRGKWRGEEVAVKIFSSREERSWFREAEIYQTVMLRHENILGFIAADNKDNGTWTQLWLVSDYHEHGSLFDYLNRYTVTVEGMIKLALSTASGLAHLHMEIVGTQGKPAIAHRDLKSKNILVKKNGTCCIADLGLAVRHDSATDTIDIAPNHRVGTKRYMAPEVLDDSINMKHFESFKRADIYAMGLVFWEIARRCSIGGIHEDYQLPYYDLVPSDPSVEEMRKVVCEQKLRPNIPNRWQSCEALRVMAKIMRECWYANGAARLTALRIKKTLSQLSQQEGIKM
In words: Inhibition of ALK5 (unknown origin) at 25 uM incubated for 2 hrs in presence of ATP by ADP-Glo reagent based luminescence plate reader analysis relative to control. On the technique in general: In ADP-Glo the light output rises with the ADP produced.

Amino acid sequences for entries named in this document (tags omitted).
UniProt Q8BUN5, whole entry, looked up: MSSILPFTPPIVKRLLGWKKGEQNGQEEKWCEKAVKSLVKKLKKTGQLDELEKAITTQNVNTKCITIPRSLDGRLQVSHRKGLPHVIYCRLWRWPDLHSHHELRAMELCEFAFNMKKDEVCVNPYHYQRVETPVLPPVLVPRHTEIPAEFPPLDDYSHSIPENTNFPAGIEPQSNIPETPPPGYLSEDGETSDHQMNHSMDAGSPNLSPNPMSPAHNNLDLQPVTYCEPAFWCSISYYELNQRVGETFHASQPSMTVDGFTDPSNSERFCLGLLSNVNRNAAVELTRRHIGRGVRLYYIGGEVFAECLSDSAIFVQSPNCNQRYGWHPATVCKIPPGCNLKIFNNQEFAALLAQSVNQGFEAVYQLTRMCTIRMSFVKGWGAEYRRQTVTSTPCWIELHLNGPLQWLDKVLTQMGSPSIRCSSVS

The next assay has as its system Panc02. In words: Antitumor activity against mouse Panc02 cells implanted in C57BL/6J mouse model assessed as downregulation of Ki67 expression in tumor at 10 mg/kg, ip administered every other day for 24 days by immunohistochemistry analysis. The class given is functional, organism-based. As to conditions: time 24.0 day.
Another assay deals with PANC-1. In words: Antitumor activity against human PANC-1 cells xenografted in C57BL/6J mouse model assessed as downregulation of Ki67 expression in tumor at 10 mg/kg, ip administered every other day for 24 days by immunohistochemistry analysis. The assay is classed as functional, organism-based. As to conditions: time 24.0 day. (In general: Xenograft models place foreign cells or tissue in a host animal.)

Assay [2] addresses Mothers against decapentaplegic homolog 3 (Mus musculus) (UniProt Q8BUN5). Put plainly: Inhibition of SMAD3 phosphorylation in mouse NIH3T3 cells preincubated with compound for 1 hrs followed by TGF-beta1 stimulation by Western blot analysis. As to conditions: dose 0.05-2 µM. The class given is cell-based. A general note: Immunoblotting shows a protein as a band on a membrane.

The source made the active and inactive calls. No cut-off for these calls is given here.

What is called inhibition is the relative decrease from the control value, in per cent. For `CC(C)(C)OC(=O)N1CCC(Cn2ncc3c(N)ncnc32)CC1`, the inhibition in assay [1] is 70%. As for `CC(=O)N1CCN(Cc2cccc(-c3ccc4[nH]ccc4c3)c2)CC1`, the inhibition in assay [1] is 52%. Still for that read-out and setting: next, `c1ccc2ncc(-c3ccc4[nH]ccc4c3)cc2c1`: 49%. Turning to `Nc1ccn([C@@H]2O[C@H](CO)[C@@H](O)C2(F)F)c(=O)n1` [GEMCITABINE], the outcome in the assay with Panc02 and in the assay with PANC-1 was Active. For `CC(=O)N1CCC(CCn2nc(-c3ccc4[nH]cc(C)c4c3)c3c(N)ncnc32)CC1`, the inhibition result in assay [2] is “Dose-Dependent Effect”.

The values above are taken from ChEMBL document CHEMBL5512657, “Design, synthesis and evaluation of a pyrazolo[3,4-d]pyrimidine derivative as a novel and potent TGFβ1R1 inhibitor” (Eur J Med Chem, 2024).
